The text below walks through data of patent US8981092B2, “Substituted 3,4-dihydro-2H-pyrrolo[1,2-a]pyrazin-1-ones as modulators of protein kinase activity” (Nerviano Medical Sciences S.r.l., priority 2008, dated 2015).

Amino acid sequences for entries named in this document (tags omitted). A change or cut given only in a name is not applied to a line headed by its entry.
UniProt Q9P1W9: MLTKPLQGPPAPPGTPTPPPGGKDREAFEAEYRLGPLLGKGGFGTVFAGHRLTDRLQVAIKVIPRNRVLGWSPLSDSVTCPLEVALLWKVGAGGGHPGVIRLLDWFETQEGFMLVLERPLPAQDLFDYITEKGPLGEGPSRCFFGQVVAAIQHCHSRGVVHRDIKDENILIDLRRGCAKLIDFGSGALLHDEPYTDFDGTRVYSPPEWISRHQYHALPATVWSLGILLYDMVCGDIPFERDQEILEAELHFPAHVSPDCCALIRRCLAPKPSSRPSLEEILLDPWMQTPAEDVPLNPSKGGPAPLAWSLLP

In this assay the target is Full-length human PIM-2 (Homo sapiens, UniProt Q9P1W9). The note with it: read-out: PIM-2 IC50; ATP 4 μM, Aktide 5 μM, enzyme 1.5 nM.
As for `O=C(CC1CNC(=O)c2cc(-c3cccc(C(F)(F)F)c3)cn21)NCC1CCCCC1` (centres unmarked) [Compound A133-M-B22], the IC50 is not below 10000 nM. On to `O=C(C[C@H]1CNC(=O)c2cc(-c3cccc(C(F)(F)F)c3)cn21)N[C@H](CO)c1ccccc1` [A133-M-B62 isomer S], for which the IC50 amounted to 1330 nM. As to `O=C(CC1CNC(=O)c2cc(-c3cn[nH]c3)cn21)NCc1ccccc1` (centres unmarked) [Compound A144-M-B14], the IC50 was 4920 nM.

`O=C(CC1CNC(=O)c2cc(-c3ccc(F)cc3F)cn21)NCc1ccccc1` (centres unmarked) [Compound A151-M-B14]: the IC50 was 2250 nM. For `NC[C@@H](NC(=O)C[C@H]1CNC(=O)c2cc(-c3cccc(F)c3)cn21)c1ccccc1` [A127-M-B65 isomer S] the value was 180 nM; for `CC(C)(C)NC(=O)CC1CNC(=O)c2cc(-c3cccc(Cl)c3)cn21` (centres unmarked) [Compound A150-M-B43], 5890 nM.

On to `O=C(CC1CNC(=O)c2cc(-c3ccccc3F)cn21)NCc1cccc(F)c1` (centres unmarked) [Compound A128-M-B30], for which the IC50 was found to be 2030 nM.

In the case of `O=C(C[C@@H]1CNC(=O)c2cc(-c3ccnc(F)c3)cn21)N[C@H](CO)C1CCCCC1` [A157-M-B61 isomer R], the IC50 came to 2830 nM. Then `O=C(CC1CNC(=O)c2cc(-c3cn[nH]c3)cn21)NCC1CCCCC1` (centres unmarked) [Compound A144-M-B22], with 660 nM; and `NCC(NC(=O)CC1CNC(=O)c2cc(-c3cc(F)ccc3F)cn21)c1ccccc1` (stereo not drawn) [A158-M-B65 isomer S], with 180 nM; and `O=C(CC1CNC(=O)c2cc(-c3ccc(F)cc3)cn21)NCC1CCCCC1` (centres unmarked) [Compound A129-M-B22], with 5920 nM. For `CC(C)CCNC(=O)CC1CNC(=O)c2cc(-c3ccccc3F)cn21` (centres unmarked) [Compound A128-M-B32] the value was 7550 nM. For `O=C(CC1CNC(=O)c2cc(-c3cccc(Cl)c3)cn21)Nc1ccccc1` (centres unmarked) [Compound A150-M-B52] the value was 5170 nM.

On to `O=C(C[C@@H]1CNC(=O)c2cc(-c3cccc(C(F)(F)F)c3)cn21)N[C@H](CO)c1ccccc1` [A133-M-B62 isomer R], for which the half-maximal inhibitory concentration (IC50) was not below 10000 nM. For the compound `COC(=O)c1cccc(-c2cc3n(c2)C(CC(=O)NCc2cccc(F)c2)CNC3=O)c1` (centres unmarked) [Compound A142-M-B30], the IC50 stood at 2580 nM.

For the compound `O=C(CC1CNC(=O)c2cc(-c3ccccc3F)cn21)NCc1ccncc1` (centres unmarked) [Compound A128-M-B39], the half-inhibitory concentration (IC50) came to 870 nM. Then `CCCNC(=O)CC1CNC(=O)c2cc(-c3cccc(Cl)c3)cn21` (centres unmarked) [Compound A150-M-B25], with 5860 nM; and `Cc1ccccc1NC(=O)CC1CNC(=O)c2cc(-c3cccc(Cl)c3)cn21` (centres unmarked) [Compound A150-M-B36], with 8980 nM. For `O=C(C[C@@H]1CNC(=O)c2cc(-c3cccc(C(F)(F)F)c3)cn21)N[C@H](CO)Cc1ccccc1` [A133-M-B64 isomer R] the value was not below 10000 nM. Regarding `CC(C)CCNC(=O)CC1CNC(=O)c2cc(-c3ccc(F)cc3F)cn21` (centres unmarked) [Compound A151-M-B32], the IC50 was not below 10000 nM.

As for `O=C(CC1CNC(=O)c2cc(-c3cccc(Cl)c3)cn21)NC1CCCC1` (centres unmarked) [Compound A150-M-B26], the IC50 is 5510 nM. Then `O=C(C[C@@H]1CNC(=O)c2cc(-c3cccc(F)c3)cn21)N[C@H](CO)Cc1ccccc1` [A127-M-B64 isomer R], with not below 10000 nM. In the case of `O=C(CC1CNC(=O)c2cc(-c3ccc(F)c(F)c3)cn21)NCc1ccc(F)cc1` (centres unmarked) [Compound A139-M-B30], the IC50 was 3370 nM. With `O=C(CC1CNC(=O)c2cc(-c3cccc(F)c3)cn21)NCc1cccc(F)c1` (centres unmarked) [Compound A127-M-B30], the IC50 came out at 1670 nM. For `O=C(CC1CNC(=O)c2cc(-c3cn[nH]c3)cn21)NCc1ccc(F)cc1` (centres unmarked) [Compound A144-M-B30] the value was 680 nM; for `O=C(CC1CNC(=O)c2cc(-c3cccc(F)c3)cn21)NCc1ccccc1` (centres unmarked) [Compound A127-M-B14], 2740 nM. In the case of `O=C(CC1CNC(=O)c2cc(-c3cccc(C(F)(F)F)c3)cn21)NCc1ccccc1` (centres unmarked) [Compound A133-M-B14], the IC50 worked out at 7400 nM. For `O=C(CC1CNC(=O)c2cc(-c3ccccc3F)cn21)NCc1ccco1` (centres unmarked) [Compound A128-M-B40] the value was 4500 nM; for `O=C(C[C@@H]1CNC(=O)c2cc(-c3cccc(C(F)(F)F)c3)cn21)N[C@H](CO)C1CCCCC1` [A133-M-B61 isomer R], not below 10000 nM. Then `O=C(CC1CNC(=O)c2cc(-c3ccc(F)cc3F)cn21)NCc1ccncc1` (centres unmarked) [Compound A151-M-B39], with 3690 nM.

In the case of `CN1CCN(C(=O)CC2CNC(=O)c3cc(-c4ccnc(F)c4)cn32)C(c2ccccc2)C1` (mixture of isomers) [Compound A157-M-B63], the IC50 is 2370 nM. Regarding `O=C(CC1CNC(=O)c2cc(-c3ccc4c(c3)OCO4)cn21)NCC1CCCCC1` (centres unmarked) [Compound A132-M-B22], the IC50 was not below 10000 nM.

Turning to `C=CCN1CCN(C(=O)CC2CNC(=O)c3cc(-c4cccc(Cl)c4)cn32)CC1` (centres unmarked) [Compound A150-M-B49], the IC50 was found to be 1610 nM.

On to `CN1CCN(C(=O)CC2CNC(=O)c3cc(-c4cccc(C(F)(F)F)c4)cn32)C(c2ccccc2)C1` (mixture of isomers) [Compound A133-M-B63], for which the IC50 was not below 10000 nM. As for `O=C(CC1CNC(=O)c2cc(-c3cccc(Cl)c3)cn21)NCc1ccncc1` (centres unmarked) [Compound A150-M-B39], the IC50 is 600 nM.

In the case of `O=C(C[C@@H]1CNC(=O)c2cc(-c3ccnc(F)c3)cn21)N[C@H](CO)c1ccccc1` [A157-M-B62 isomer R], the IC50 was determined as 1050 nM. Turning to `O=C(CC1CNC(=O)c2cc(-c3cccc(Cl)c3)cn21)NC1CCCCC1` (centres unmarked) [Compound A150-M-B24], the IC50 stood at 4060 nM.

Regarding `CN1CCN(C(=O)CC2CNC(=O)c3cc(-c4cc(F)ccc4F)cn32)C(c2ccccc2)C1` (mixture of isomers) [Compound A158-M-B63], the IC50 turned out to be 3050 nM.

With `O=C(C[C@@H]1CNC(=O)c2cc(-c3cc(F)ccc3F)cn21)N[C@H](CO)c1ccccc1` [A158-M-B62 isomer R], the IC50 was 660 nM.

On to `O=C(CC1CNC(=O)c2cc(-c3cccc(Cl)c3)cn21)NCc1ccccc1` (centres unmarked) [Compound A150-M-B14], for which the concentration for half-maximal inhibition (IC50) turned out to be 1520 nM. For `O=C(CC1CNC(=O)c2cc(-c3ccccc3F)cn21)NCc1ccccc1` (centres unmarked) [Compound A128-M-B14] the value was 2110 nM.

Regarding `O=C(CC1CNC(=O)c2cc(-c3ccsc3)cn21)NCc1cccc(F)c1` (centres unmarked) [Compound A33-M-B30], the IC50 is 1920 nM. As to `O=C1NCC(CC(=O)N2CCCCCC2)n2cc(-c3cccc(Cl)c3)cc21` (centres unmarked) [Compound A150-M-B45], the half-maximal inhibitory concentration (IC50) was found to be 4650 nM. On to `O=C(C[C@@H]1CNC(=O)c2cc(-c3ccnc(F)c3)cn21)N[C@H](CO)Cc1ccccc1` [A157-M-B64 isomer R], for which the IC50 turned out to be 2810 nM. For `CN1CCN(C(=O)CC2CNC(=O)c3cc(-c4cccc(F)c4)cn32)C(c2ccccc2)C1` (mixture of isomers) [Compound A127-M-B63] the value was 2440 nM; for `COC(=O)c1cccc(-c2cc3n(c2)C(CC(=O)NCc2ccccc2)CNC3=O)c1` (centres unmarked) [Compound A142-M-B14], 6620 nM; for `O=C(CC1CNC(=O)c2cc(-c3cccc(Cl)c3)cn21)NCC1CC1` (centres unmarked) [Compound A150-M-B48], 2860 nM. With `O=C(CC1CNC(=O)c2cc(-c3ccc(F)c(F)c3)cn21)NCc1ccncc1` (centres unmarked) [Compound A139-M-B39], the IC50 is 3050 nM.

In the case of `CC(C)CCNC(=O)CC1CNC(=O)c2cc(-c3cccc(F)c3)cn21` (centres unmarked) [Compound A127-M-B32], the IC50 is not below 10000 nM. Then `NC[C@@H](NC(=O)C[C@@H]1CNC(=O)c2cc(-c3ccnc(F)c3)cn21)c1ccccc1` [A157-M-B65 isomer R], with 500 nM; and `CC(C)CCNC(=O)CC1CNC(=O)c2cc(-c3cccc(Cl)c3)cn21` (centres unmarked) [Compound A150-M-B32], with 4490 nM; and `NC[C@@H](NC(=O)C[C@H]1CNC(=O)c2cc(-c3ccnc(F)c3)cn21)c1ccccc1` [A157-M-B65 isomer S], with 100 nM. Then `O=C(C[C@H]1CNC(=O)c2cc(-c3cccc(F)c3)cn21)N[C@H](CO)c1ccccc1` [A127-M-B62 isomer S], with 520 nM; and `O=C(C[C@H]1CNC(=O)c2cc(-c3cccc(C(F)(F)F)c3)cn21)N[C@H](CO)C1CCCCC1` [A133-M-B61 isomer S], with 4790 nM; and `COCCCNC(=O)CC1CNC(=O)c2cc(-c3cccc(Cl)c3)cn21` (centres unmarked) [Compound A150-M-B42], with not below 10000 nM. Then `O=C(CC1CNC(=O)c2cc(-c3cccc(F)c3)cn21)NCc1ccncc1` (centres unmarked) [Compound A127-M-B39], with 1150 nM; and `O=C(C[C@H]1CNC(=O)c2cc(-c3cccc(F)c3)cn21)N[C@H](CO)C1CCCCC1` [A127-M-B61 isomer S], with 250 nM. As for `O=C(CC1CNC(=O)c2cc(-c3cccc(Cl)c3)cn21)NCCN1CCOCC1` (centres unmarked) [Compound A150-M-B38], the IC50 worked out at 7510 nM.

Consider `O=C(CC1CNC(=O)c2cc(-c3cccc(OC(F)(F)F)c3)cn21)NCc1ccccc1` (centres unmarked) [Compound A134-M-B14], for which the IC50 is 7220 nM. Regarding `O=C(CC1CNC(=O)c2cc(-c3ccc(F)c(F)c3)cn21)NCc1ccccc1` (centres unmarked) [Compound A139-M-B14], the IC50 came out at 3440 nM. As for `O=C(CC1CNC(=O)c2cc(-c3ccc(F)c(F)c3)cn21)NCc1ccco1` (centres unmarked) [Compound A139-M-B40], the IC50 came to 2220 nM. For `O=C(C[C@@H]1CNC(=O)c2cc(-c3cc(F)ccc3F)cn21)N[C@H](CO)C1CCCCC1` [A158-M-B61 isomer R] the value was 5550 nM; for `O=C(CC1CNC(=O)c2cc(-c3ccsc3)cn21)NCC1CCCCC1` (centres unmarked) [Compound A33-M-B22], 5030 nM.

With `NC[C@@H](NC(=O)C[C@H]1CNC(=O)c2cc(-c3cccc(C(F)(F)F)c3)cn21)c1ccccc1` [A133-M-B65 isomer S], the IC50 worked out at 820 nM.

For `O=C(CC1CNC(=O)c2cc(-c3cccc(OC(F)(F)F)c3)cn21)NCc1cccc(F)c1` (centres unmarked) [Compound A134-M-B30], the IC50 is 5800 nM.

In general, IC50 refers to the concentration needed to halve the response being measured.
